Measured values from patent US10487148B2, “Methods and compositions for treating aging-associated impairments” (THE BOARD OF TRUSTEES OF THE LELAND STANFORD JUNIOR …, priority 2010, dated 2019).

What was measured:
Format in all cases: in vivo, mouse
[1] = tested on: young adult (3 months) mice; experiment: Radial arm water maze (RAWM), spatial learning and memory; conditions: vs vehicle
Experimental: (§1) Animals were placed in a stereotaxic frame and anesthetized with 2% isoflurane (2 L/min oxygen flow rate) delivered through an anesthesia nose cone. Ophthalmic eye ointment (Puralube Vet Ointment, Dechra) was applied to the cornea to prevent desiccation during surgery. The area around the incision was trimmed. Solutions were injected bilaterally into the DG of the dorsal hippocampi using the following coordinates: (from bregma) anterior=−2 mm, lateral=1.5 mm, (from skull surface) height=−2.1 mm. A 2 μl volume was injected stereotaxically over 10 minutes (injection speed: 0.20 μl/min) using a 5 μl 26s gauge Hamilton syringe. To limit reflux along the injection track, the needle was maintained in situ for 8 minutes, slowly pulled out half way and kept in position for an additional two minutes. The skin was closed using silk suture. Each mouse was injected subcutaneously with the analgesic Buprenex. Mice were single-housed and monitored during recovery.
(§2) Carrier free purified human β2-Microglobulin (Lee Biosolutions) was dissolved in PBS and administered systemically (100 μg/kg) via intraorbital in young (3 months) wild type animals, or stereotaxically (0.50 μl; 0.1 μg/μl) into the DG of the hippocampus in young (3 months) wild type and Tap1^−/− mutant. For histological analysis B2M and vehicle were administered into contralateral DG of the same animal. For behavioral analysis B2M or vehicle were administered bilaterally into the DG and mice were allowed to recover for six or 30 days prior to cognitive testing.
Spatial learning and memory was assessed using the radial arm water maze (RAWM) paradigm following the protocol described by Alamed et al. Nat. Protocols (2006) 1: 1671-1679). In this task the goal arm location containing a platform remains constant throughout the training and testing phase, while the start arm is changed during each trial. On day one during the training phase, mice are trained for 15 trails, with trials alternating between a visible and hidden platform. On day two during the testing phase, mice are tested for 15 trials with a hidden platform. Entry into an incorrect arm is scored as an error, and errors are averaged over training blocks (three consecutive trials). Investigators were blinded to genotype and treatment when scoring.

[2] = tested on: young adult (3 months) mice; experiment: Contextual and cued fear conditioning; conditions: vs vehicle; for cued memory (freezing on re-exposure to conditioned stimulus in novel context): 24 hours after training
Experimental: as §1, §2
In this task, mice learned to associate the environmental context (fear conditioning chamber) with an aversive stimulus (mild foot shock; unconditioned stimulus, US) enabling testing for hippocampal-dependent contextual fear conditioning. As contextual fear conditioning is hippocampus and amygdala dependent, the mild foot shock was paired with a light and tone cue (conditioned stimulus, CS) in order to also assess amygdala-dependent cued fear conditioning. […] Specific training parameters are as follows: tone duration is 30 seconds; level is 70 dB, 2 kHz; shock duration is 2 seconds; intensity is 0.6 mA. This intensity is not painful and can easily be tolerated but will generate an unpleasant feeling. More specifically, on day 1 each mouse was placed in a fear-conditioning chamber and allowed to explore for 2 minutes before delivery of a 30-second tone (70 dB) ending with a 2-second foot shock (0.6 mA). Two minutes later, a second CS-US pair was delivered. On day 2 each mouse was first placed in the fear-conditioning chamber containing the same exact context, but with no CS or foot shock. Freezing was analyzed for 1-3 minutes. […] Freezing was analyzed for 1-3 minutes. Freezing was measured using a FreezeScan video tracking system and software (Cleversys, Inc).

[3] = tested on: BrdU-positive cells in the dentate gyrus (DG); experiment: BrdU labeling of proliferating cells in the dentate gyrus; conditions: systemic B2M, intraorbital injections, young adult mice, vs vehicle
Experimental: as §2
For short term Brdu labeling 50 mg/kg of BrdU was injected intraperitoneally into mice daily either three or six days before sacrifice. For long term BrdU labeling 50 mg/kg of BrdU was injected into mice once a day for six days and animals were sacrificed 28 days after first administration. […] The number of BrdU-positive cells in the granule cell and subgranular cell layer of the DG were counted and multiplied by 12 to estimate the total number of BrdU-positive cells in the entire DG. To determine the fate of dividing cells a total of 200 BrdU-positive cells across 4-6 sections per mouse were analyzed by confocal microscopy for co-expression with NeuN and GFAP. The number of double-positive cells was expressed as a percentage of BrdU-positive cells. […]

[4] = General health and weight after systemic B2M administration; conditions: young adult mice, systemic B2M (100 μg/kg) by intraorbital injections vs vehicle
Experimental: as §2

[5] = tested on: Dcx-positive and Mcm2-positive cells in the dentate gyrus (DG); experiment: Neurogenesis in the dentate gyrus by immunohistochemistry (Dcx, Mcm2); conditions: for number of Dcx-positive cells in the DG: B2M stereotaxically into right DG vs vehicle in contralateral DG
Experimental: as §1, §2
Tissue processing and immunohistochemistry was performed on free-floating sections following standard published techniques (Villeda, S. A., et al., “The ageing systemic milieu negatively regulates neurogenesis and cognitive function,” Nature (2011) 477: 90-94). Briefly, mice were anesthetized with 400 mg/kg chloral hydrate (Sigma-Aldrich) and transcardially perfused with 0.9% saline. Brains were removed and fixed in phosphate-buffered 4% paraformaldehyde, pH 7.4, at 4° C. for 48 h before they were sunk through 30% sucrose for cryoprotection. Brains were then sectioned coronally at 40 μm with a cryomicrotome (Leica Camera, Inc.) and stored in cryoprotective medium. […] To estimate the total number of Dcx positive cells per DG immunopositive cells in the granule cell and subgranular cell layer of the DG were counted in every sixth coronal hemibrain section through the hippocampus for a total of six sections and multiplied by 12.

[6] = local B2M, bilateral stereotaxic injections into DG
[7] = systemic B2M, intraorbital injections, young adult mice
[8] = systemic B2M, intraorbital injections, young adult mice, vs vehicle

Substance: β2-Microglobulin [B2M]
- errors in locating the target platform, RAWM testing phase [1, 6]: significantly more errors
- learning capacity, RAWM training phase [1, 6]: similar
- errors in locating the target platform, RAWM testing phase [1, 7]: significantly more errors
- learning capacity for the task, RAWM training phase [1, 7]: similar
- freezing time during contextual memory testing [2, 6]: decreased freezing time
- cued memory (freezing on re-exposure to conditioned stimulus in novel context) ([2]; local B2M, bilateral stereotaxic injections six days prior to testing): No differences in cued memory
- cued memory (freezing on re-exposure to conditioned stimulus in novel context) ([2]; systemic B2M, intraorbital injections five times over 10 days): No differences in cued memory
- freezing time during contextual memory testing ([2]; systemic B2M, intraorbital injections, young adult mice, 24 h after training): decreased freezing time
- number of proliferating cells having incorporated BrdU [3]: decrease
- signs of illness or weight loss [4]: no signs of illness or weight loss
- number of Dcx-positive cells in the DG ([5]; Tap1−/− young adult mice): No difference
- number of Doublecortin (Dcx)-positive newly born neurons in the DG [5, 8]: significant decrease
- number of Mcm2-positive progenitors in the DG [5, 8]: significant decrease
- number of Dcx-positive cells in the DG ([5]; wild type young adult mice): decrease
